The values below are quoted from earlier work in US6485955B1, “Quiescent cell dipeptidyl peptidase: a novel cytoplasmic serine protease” (The Trustees of Tufts University, priority 1997, dated 2002).

Amino acid sequences for entries named in this document (tags omitted).
UniProt P27487, whole entry: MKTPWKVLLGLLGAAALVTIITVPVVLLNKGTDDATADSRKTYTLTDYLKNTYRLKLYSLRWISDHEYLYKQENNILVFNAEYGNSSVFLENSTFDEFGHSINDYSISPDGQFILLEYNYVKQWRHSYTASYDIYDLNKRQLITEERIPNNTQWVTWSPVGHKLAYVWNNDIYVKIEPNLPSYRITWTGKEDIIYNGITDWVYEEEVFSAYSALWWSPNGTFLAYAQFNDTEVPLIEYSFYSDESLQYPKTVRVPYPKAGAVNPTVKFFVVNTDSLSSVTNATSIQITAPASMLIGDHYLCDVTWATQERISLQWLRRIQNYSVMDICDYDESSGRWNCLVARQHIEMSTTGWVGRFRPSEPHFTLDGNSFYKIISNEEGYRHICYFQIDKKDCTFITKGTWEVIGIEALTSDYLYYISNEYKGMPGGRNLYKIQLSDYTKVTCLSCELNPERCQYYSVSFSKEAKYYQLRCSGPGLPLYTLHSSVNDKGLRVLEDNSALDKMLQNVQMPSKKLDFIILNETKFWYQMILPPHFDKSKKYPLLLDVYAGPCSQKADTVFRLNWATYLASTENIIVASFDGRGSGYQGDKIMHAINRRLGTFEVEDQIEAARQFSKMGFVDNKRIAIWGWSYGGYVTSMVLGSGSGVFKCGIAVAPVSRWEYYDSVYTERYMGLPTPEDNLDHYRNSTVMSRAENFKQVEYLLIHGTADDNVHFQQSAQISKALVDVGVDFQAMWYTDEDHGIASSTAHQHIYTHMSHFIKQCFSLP

The structures appear in SMILES notation.

The data set has as its target DPIV (Homo sapiens, UniProt P27487). To be noted: cited from earlier work.

As to `CC(C)[C@H](N)C(=O)N1CCC[C@H]1B(O)O` [VbP, Val-boroPro], the DPIV inhibition entry is reported as “highly potent inhibitor”.
